How the values were obtained:
[1] = biological target: TAOK3 (human) (UniProt Q9H2K8); experiment: KINOMEscan competition binding; settings: compound 10.0 µM
[2] = biological target: MAP3K7 (human) (UniProt O43318); experiment: KINOMEscan competition binding; settings: compound 10.0 µM

Amino acid sequences for entries named in this document (tags omitted). A change or cut given only in a name is not applied to a line headed by its entry.
UniProt Q9H2K8: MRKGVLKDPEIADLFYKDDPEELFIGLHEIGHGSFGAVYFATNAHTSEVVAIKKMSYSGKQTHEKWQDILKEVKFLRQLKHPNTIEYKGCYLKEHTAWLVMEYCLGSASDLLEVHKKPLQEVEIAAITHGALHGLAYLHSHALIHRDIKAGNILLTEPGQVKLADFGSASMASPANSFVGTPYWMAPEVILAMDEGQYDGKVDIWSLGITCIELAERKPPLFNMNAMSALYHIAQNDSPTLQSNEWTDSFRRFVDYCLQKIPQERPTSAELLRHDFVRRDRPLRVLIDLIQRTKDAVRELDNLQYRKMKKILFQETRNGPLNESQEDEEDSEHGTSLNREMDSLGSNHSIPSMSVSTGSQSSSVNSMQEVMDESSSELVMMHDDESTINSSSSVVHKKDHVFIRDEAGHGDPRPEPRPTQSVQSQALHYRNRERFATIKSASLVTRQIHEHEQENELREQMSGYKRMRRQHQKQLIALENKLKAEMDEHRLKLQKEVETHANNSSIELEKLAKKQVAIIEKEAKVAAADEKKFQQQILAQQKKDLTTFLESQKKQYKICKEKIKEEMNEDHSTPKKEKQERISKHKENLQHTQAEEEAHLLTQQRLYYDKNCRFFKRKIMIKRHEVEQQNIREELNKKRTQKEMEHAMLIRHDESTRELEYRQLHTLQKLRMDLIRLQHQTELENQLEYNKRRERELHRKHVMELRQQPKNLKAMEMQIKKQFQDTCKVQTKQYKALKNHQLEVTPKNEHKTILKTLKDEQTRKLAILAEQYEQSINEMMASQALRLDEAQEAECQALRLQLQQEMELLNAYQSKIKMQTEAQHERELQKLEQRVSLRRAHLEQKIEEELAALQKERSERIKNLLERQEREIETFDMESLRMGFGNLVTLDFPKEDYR
UniProt O43318: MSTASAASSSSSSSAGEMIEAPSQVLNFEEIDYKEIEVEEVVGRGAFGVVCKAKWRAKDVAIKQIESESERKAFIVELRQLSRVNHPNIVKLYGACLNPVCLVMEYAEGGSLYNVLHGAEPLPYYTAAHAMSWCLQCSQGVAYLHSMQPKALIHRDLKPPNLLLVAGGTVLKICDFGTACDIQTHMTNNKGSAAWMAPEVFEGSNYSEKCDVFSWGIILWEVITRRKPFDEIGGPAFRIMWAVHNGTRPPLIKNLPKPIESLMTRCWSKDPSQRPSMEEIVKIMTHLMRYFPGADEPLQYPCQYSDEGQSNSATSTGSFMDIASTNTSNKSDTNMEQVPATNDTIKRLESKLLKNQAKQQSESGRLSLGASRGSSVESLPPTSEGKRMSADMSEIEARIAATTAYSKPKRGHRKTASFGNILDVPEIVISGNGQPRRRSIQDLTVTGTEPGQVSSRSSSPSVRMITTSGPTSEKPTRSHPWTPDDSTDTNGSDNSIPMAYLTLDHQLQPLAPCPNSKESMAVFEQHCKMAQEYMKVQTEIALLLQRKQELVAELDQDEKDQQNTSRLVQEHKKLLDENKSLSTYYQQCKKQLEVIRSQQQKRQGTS

kinase still bound, per cent of control [1]: 0.15% | kinase still bound, per cent of control [2]: 0.15%
SMILES: CCN1CCN(Cc2ccc(NC(=O)c3ccc(C)c(Oc4ccnc5[nH]ccc45)c3)cc2C(F)(F)F)CC1

From the kinase profiling compilation of Christmann-Franck et al. (2016)
